Experimental data as given in IntAct's records for PubMed 25684577.

B1: E3 ubiquitin-protein ligase CHIP (Homo sapiens), Q9UNE7-1 (parent)
chain: MKGKEEKEGGARLGAGGGSPEKSPSAQELKEQGNRLFVGRKYPEAAACYGRAITRNPLVAVYYTNRALCYLKMQQHEQALADCRRALELDGQSVKAHFFLGQCQLEMESYDEAIANLQRAYSLAKEQRLNFGDDIPSALRIAKKKRWNSIEERRIHQESELHSYLSRLIAAERERELEECQRNHEGDEDDSHVRAQQACIEAKHDKYMADMDELFSQVDEKRKKRDIPDYLCGKISFELMREPCITPSGITYDRKDIEEHLQRVGHFDPVTRSPLTQEQLIPNLAMKEVIDAFISENGWVEDY

Variants of: B1
Conditions: with p11142-1 HSPA8, P11142-1

effect of a mutation on the interaction	Variant
disrupting interaction strength	V59D;L129D
